According to patent publication US20120122928A1 (priority 2010, published 2012):

details: LC-MS determination in the neutral range, pH 7.8, 0.001 molar aqueous ammonium hydrogencarbonate and acetonitrile

Compound | Log P [b]
O=C(Cn1nc(C(F)F)cc1C(F)F)N1CCC(c2nc(C3=NOC(COc4ccccc4C=NO)C3)cs2)CC1 (mixture of isomers) [I-64] | 2.59
O=C(Cn1nc(C(F)F)cc1C(F)F)N1CCC(c2nc(C3=NOC(COc4c(Cl)cccc4Cl)C3)cs2)CC1 (centres unmarked) [I-1] | 3.66
O=C(Cn1nc(C(F)F)cc1C(F)F)N1CCC(c2nc(C3=NOC(COc4ccccc4F)C3)cs2)CC1 (centres unmarked) [I-3] | 3.2
O=C(CCC1CC(c2csc(C3CCN(C(=O)Cn4nc(C(F)F)cc4C(F)F)CC3)n2)=NO1)c1ccccc1 (centres unmarked) [I-6] | 3.13
O=C(Cn1nc(C(F)F)cc1C(F)F)N1CCC(c2nc(C3=NOC(CSc4ccccc4)C3)cs2)CC1 (centres unmarked) [I-10] | 3.51
CC(=O)c1ccccc1OCC1CC(c2csc(C3CCN(C(=O)Cn4nc(C(F)F)cc4C(F)F)CC3)n2)=NO1 (centres unmarked) [I-12] | 2.89
Cc1ccccc1OCC1CC(c2csc(C3CCN(C(=O)Cn4nc(C(F)F)cc4C(F)F)CC3)n2)=NO1 (centres unmarked) [I-13] | 3.46
CN(CC1CC(c2csc(C3CCN(C(=O)Cn4nc(C(F)F)cc4C(F)F)CC3)n2)=NO1)c1ccccc1 (centres unmarked) [I-14] | 3.64
O=C(Cc1cc(Cl)ccc1Cl)N1CCC(c2nc(C3=NOC(COc4ccccc4)C3)cs2)CC1 (centres unmarked) [I-23] | 3.82
COc1ccccc1OCC1CC(c2csc(C3CCN(C(=O)Cn4nc(C(F)F)cc4C(F)F)CC3)n2)=NO1 (centres unmarked) [I-26] | 3.03
Cc1ccc(C)c(CC(=O)N2CCC(c3nc(C4=NOC(COc5ccccc5)C4)cs3)CC2)c1 (centres unmarked) [I-29] | 3.67
Cc1ccc(Cl)cc1NC(=O)N1CCC(c2nc(C3=NOC(COc4ccccc4)C3)cs2)CC1 (centres unmarked) [I-33] | 3.5
FC(F)c1cc(C(F)F)n(CC(=S)N2CCC(c3nc(C4=NOC(COc5ccccc5)C4)cs3)CC2)n1 (centres unmarked) [I-34] | 3.66
O=C(Cn1nc(C(F)F)cc1C(F)F)N1CCC(c2nc(C3=NOC(COc4c(Br)cccc4Br)C3)cs2)CC1 (centres unmarked) [I-36] | 3.82
Cc1cc(C(F)(F)F)nn1CC(=O)N1CCC(c2nc(C3=NOC(COc4ccccc4)C3)cs2)CC1 (centres unmarked) [I-37] | 3.28
COc1ccc(C)cc1NC(=O)N1CCC(c2nc(C3=NOC(COc4ccccc4)C3)cs2)CC1 (centres unmarked) [I-38] | 3.55
C[Si](C)(c1ccccc1)C1CC(c2csc(C3CCN(C(=O)Cn4nc(C(F)F)cc4C(F)F)CC3)n2)=NO1 (centres unmarked) [I-40] | 3.99
Cc1ccc(C)c(NC(=O)N2CCC(c3nc(C4=NOC(COc5ccccc5)C4)cs3)CC2)c1 (centres unmarked) [I-41] | 3.28
O=C(Cn1nc(C(F)F)cc1C(F)F)N1CCC(c2nc(-c3cc(COc4ccccc4)on3)cs2)CC1 [I-44] | 3.52
Cc1cc(C(F)F)nn1CC(=O)N1CCC(c2nc(C3=NOC(COc4c(Cl)cccc4Cl)C3)cs2)CC1 (centres unmarked) [I-45] | 3.4
Cc1cc(C(F)(F)F)nn1CC(=O)N1CCC(c2nc(C3=NOC(COc4c(F)cccc4Cl)C3)cs2)CC1 (centres unmarked) [I-46] | 3.56
CC(O)(c1c(F)cccc1F)C1CC(c2csc(C3CCN(C(=O)Cn4nc(C(F)F)cc4C(F)F)CC3)n2)=NO1 (centres unmarked) [I-47] | 2.94

Compound | Log P [b]
Cc1cc(C(F)F)nn1CC(=O)N1CCC(c2nc(C3=NOC(COc4c(F)cccc4F)C3)cs2)CC1 (centres unmarked) [I-48] | 2.93
O=C(Cn1nc(C(F)F)cc1C(F)F)N1CCC(c2nc(C3=NOC(C(O)(c4ccccc4)C(F)(F)F)C3)cs2)CC1 (centres unmarked) [I-49] | 3.13
Cc1ccc(Cl)cc1NC(=O)N1CCC(c2nc(C3=NOC(COc4c(F)cccc4F)C3)cs2)CC1 (centres unmarked) [I-50] | 3.54
Cc1ccc(Cl)cc1NC(=O)N1CCC(c2nc(C3=NOC(COc4c(F)cccc4Cl)C3)cs2)CC1 (centres unmarked) [I-51] | 3.78
CC(C)(c1c(F)cccc1Cl)C1CC(c2csc(C3CCN(C(=O)Nc4cc(C(F)F)ccc4C(F)F)CC3)n2)=NO1 (centres unmarked) [I-53] | 4.43
Cc1cc(C(F)(F)F)nn1CC(=O)N1CCC(c2nc(C3=NOC(COc4c(F)cccc4F)C3)cs2)CC1 (centres unmarked) [I-54] | 3.32
O=C(Cn1nc(C(F)F)cc1C(F)F)N1CCC(c2nc(C3=NOC(CSc4ccccc4F)C3)cs2)CC1 (centres unmarked) [I-55] | 3.47
Cc1ccc(C)c(NC(=O)N2CCC(c3nc(C4=NOC(COc5c(Cl)cccc5Cl)C4)cs3)CC2)c1 (centres unmarked) [I-56] | 3.9
O=C(Cn1nc(C(F)F)cc1C(F)F)N1CCC(c2nc(C3=NOC(CSc4c(Cl)cccc4Cl)C3)cs2)CC1 (centres unmarked) [I-58] | 3.96
O=C(Cn1nc(C(F)F)cc1C(F)F)N1CCC(c2nc(C3=NOC(CSc4ccccc4Cl)C3)cs2)CC1 (centres unmarked) [I-61] | 3.7
Cc1cc(C(F)(F)F)nn1CC(=O)N1CCC(c2nc(C3=NOC(C(C)(C)c4c(F)cccc4F)C3)cs2)CC1 (centres unmarked) [I-62] | 4.15
O=C(Cn1nc(C(F)F)cc1C(F)F)N1CCC(c2nc(C3=NOC(CSc4ccccc4Br)C3)cs2)CC1 (centres unmarked) [I-63] | 3.71
Cc1cc(C(F)(F)F)nn1CC(=O)N1CCC(c2nc(C3=NOC(COc4c(Cl)cccc4Cl)C3)cs2)CC1 (centres unmarked) [I-65] | 3.8
CC(C)(c1c(F)cccc1F)C1CC(c2csc(C3CCN(C(=O)Cn4nc(C(F)F)cc4C(F)F)CC3)n2)=NO1 (centres unmarked) [I-66] | 3.94
Cc1cc(C(F)(F)F)nn1CC(=O)N1CCC(c2nc(C3=NOC(C(C)(C)c4c(F)cccc4Cl)C3)cs2)CC1 (centres unmarked) [I-67] | 4.36
CC(C)(c1c(F)cccc1F)C1CC(c2csc(C3CCN(C(=O)Nc4cc(C(F)F)ccc4C(F)F)CC3)n2)=NO1 (centres unmarked) [I-68] | 4.04
CC(C)(c1c(F)cccc1Cl)C1CC(c2csc(C3CCN(C(=O)Cn4nc(C(F)F)cc4C(F)F)CC3)n2)=NO1 (centres unmarked) [I-69] | 4.21
Cc1ccccc1SCC1CC(c2csc(C3CCN(C(=O)Cn4nc(C(F)F)cc4C(F)F)CC3)n2)=NO1 (centres unmarked) [I-70] | 3.75
O=C(Cn1nc(C(F)F)cc1C(F)F)N1CCC(c2nc(C3=NOC(COc4ccccc4Cl)C3)cs2)CC1 (centres unmarked) [I-71] | 3.31
COc1cccc(C=O)c1OCC1CC(c2csc(C3CCN(C(=O)Cn4nc(C(F)F)cc4C(F)F)CC3)n2)=NO1 (centres unmarked) [I-72] | 2.94
O=C(Cn1nc(C(F)F)cc1C(F)F)N1CCC(c2nc(C3=NOC(COc4c(F)cccc4Cl)C3)cs2)CC1 (centres unmarked) [I-74] | 3.39
O=C(Cn1nc(C(F)F)cc1C(F)F)N1CCC(c2nc(C3=NOC(COc4c(F)cccc4Br)C3)cs2)CC1 (centres unmarked) [I-75] | 3.65
